Earlier results in US20070043105A1, “Preventive for cerebal stroke recurrence” (ASTELLAS PHARMA INC., priority 2003, published 2007).

Tested on: SHR-SP rats
Conditions: administration before attack; cited from earlier work

In the case of COCc1c(C(C)C)nc(C(C)C)c(/C=C/[C@@H](O)C[C@@H](O)CC(=O)O)c1-c1ccc(F)cc1 [serivastatin], the brain infarction volume is listed as “effective for reducing a brain infarction volume”.
